Target: β-CA from Malassezia restricta (MreCA) (Malassezia restricta, UniProt A0A3G2S4B9)
Format: biochemical
Settings: pH 8.3

By UniProt entry, the sequences of proteins in these tests, tags left out. Residues count along the entry.
UniProt A0A3G2S4B9, 1-238: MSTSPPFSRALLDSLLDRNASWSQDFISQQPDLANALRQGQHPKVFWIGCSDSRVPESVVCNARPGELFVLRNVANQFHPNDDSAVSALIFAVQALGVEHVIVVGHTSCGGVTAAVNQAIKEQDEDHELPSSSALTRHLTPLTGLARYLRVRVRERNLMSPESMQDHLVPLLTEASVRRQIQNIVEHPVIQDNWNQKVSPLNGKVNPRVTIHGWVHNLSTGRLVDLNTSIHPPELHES

Substance: fluorosulfonate [FSO3^−]
- Ki: > 50 mM
